Tested on: A549/SN-38-4 cell line
Experiment: Overcoming anticancer drug resistance of A549/SN-38-4 cell line
Type: cell-based, human
Settings: SN-38 resistance, concentration for 50% reduction of relative resistance value, 48 hours
Method: The effect of a diphenylacrylonitrile derivative on BCRP-mediated anticancer drug resistance was studied by use of the human lung cancer A549/SN-38-4 cell line, which had acquired anticancer drug resistance through BCRP expression. The human lung cancer A549 cell line or the A549/SN-38-4 cell line was suspended in 10% FBS/Ham's F-12, and the resultant suspension was inoculated into a 96-well microplate, followed by culturing at 5% CO2 and 37° C. overnight (2×10^3 cells/50 μL/well). Thereafter, a 10% FBS/Ham's F-12 solution (25 μL) containing a diphenylacrylonitrile derivative and SN-38 or mitoxantrone was added to each of the wells, followed by culturing at 5% CO2 and 37° C. for 48 hours. After completion of culturing, the number of viable cells was counted by use of TetraColor ONE according to the attached instruction manual. […] The greater the relative resistance value, the higher the level of acquired resistance.

Substance	Resistance overcoming effect EC50
mono-{4-[(Z)-2-cyano-2-(3,4-dimethoxy-phenyl)-vinyl]-2-methoxy-phenyl} sodium phosphate [Compound 69]	0.13 µg/mL
mono-{4-[(Z)-2-cyano-2-(3,4-dimethoxy-phenyl)-vinyl]-phenyl} sodium phosphate [Compound 60]	0.064 µg/mL

Reference: US7371773B2, “Breast cancer resistance protein (BCRP) inhibitor” (Kabushiki Kaisha Yakult Honsha, priority 2003, dated 2008)
